Columns and labels:
[1] = test system: pyrrole-protein adducts in rat liver; assay: Western blot of rat liver samples detected by antiserum II; format: in vivo; conditions: rats, retrorsine 280 mg/kg or G. segetum extract 192 mg/kg oral; especially bands at about 45 and 98 KD
Protocol: Male SD rats (body weight, 190-220 g) were supplied by the Laboratory Animal Services Centre at The Chinese University of Hong Kong. Animals were placed in a controlled environment (50% relative humidity, temperature of 25° C. and dark/light cycles) and allowed access to standard rat chow and water. Herbal extracts were prepared via extracting the powdered herbal samples with distilled water for three times followed by drying the combined water extracts under reduced pressure. The obtained residues were reconstituted into the aqueous sulfuric acid solution and extracted with hexane to remove non-alkaloid components. The aqueous layer was adjusted to pH 9-10 and then extracted with dichloromethane for three times. […] The total content of toxic pyrrolizidine alkaloids in the extracts was quantified by our previously developed HPLC analytical methods. […] Serum ALT (alanine aminotransferase) activities were measured following the Sigma's protocol. Liver histomorphology was assessed by standard hematoxylin-eosin (H&E) staining procedures.
In Western blot assay, rat liver lysates were loaded and resolved by 7.5% SDS-PAGE and then transferred to nitrocellulose membranes. […] After washing, protein bands were detected by chemiluminescence with an ECL detection kit. β-Actin served as internal standard. […] The pyrrole-protein adducts were determined by the antiserum II.

[2] = test system: male CD-1 mice; assay: Hepatotoxicity in mice (serum ALT, H&E staining); format: in vivo, mouse; conditions: 100 and 150 mg/kg
[3] = test system: pyrrole-protein adducts in mouse liver; assay: Western blot of mouse liver samples detected by antiserum II; format: in vivo; conditions: mice, 100 or 150 mg/kg; bands between 20-40 KDa, not in control mice
Protocol: The hepatotoxicity of pyrrolizidine alkaloids on mice was also assessed by antiserum II, using Western blot and competitive Western blot.

[4] = test system: pyrrole-derived protein adducts in mouse liver; assay: Immunohistochemical staining of mouse liver with purified N-antibody; format: in vivo; conditions: 100 mg/kg
From the text: The immunochemihistological staining results further confirms that the purified N-antibody was specific to recognize the pyrrole moiety, especially the pyrrole-derived protein adducts with N-linkage.

For retrorsine, the “pyrrole-protein adduct bands in liver samples” value [1] was “Several bands, which were not found in control rats, were detected”, the “liver H&E staining histomorphological assessment” value [2] was “liver injury observed” and the “serum ALT” value [2] was “significant serum ALT elevation”. The “protein bands in liver samples detected by antiserum II” value [3] was “some protein bands were detected”, the “liver injury in liver slice” value [4] was “liver injury was observed” and the “intensity of stained spots (pyrrole-derived protein adduction) versus control sample” value ([4]; purified N-antibody) was “intensity significantly higher”.

Reference: patent US9056916B2, “Method and assay kit for detection of toxicity induced by pyrrolizidine alkaloids” (priority 2012, dated 2015)
